Literature values, collected in patent publication US10350210B2, “EGFR and ALK dual inhibitor” (PRECEDO PHARMACEUTICALS CO., LTD, priority 2015, dated 2019).

Test system: cancer patients with ALK translocation
Conditions: phase I study; cited from earlier work

Compound: C[C@@H](Oc1cc(-c2cnn(C3CCNCC3)c2)cnc1N)c1c(Cl)ccc(F)c1Cl [Crizotinib, reference compound]
- disease control rate: 90%
- overall response rate: 57%
